The target of the assay is T1, hErbB2-MMH (human HER2 ectodomain with C-terminal myc-myc-hexahistidine tag) (human, UniProt P04626 23-652).
T1 construct: also called Her2 ECD; Her2 protein
As to the kind of experiment: SPR (MASS-2), ADC captured on anti-human Fc, hErbB2-MMH in solution, 25 C.

B1: BsAb1-Tubulysin 1A-LP (Anti HER2 BsAb1-PEG3-N3-Tubulysin 1A-LP) (bispecific antibody, human IgG4 S228P, kappa)
heavy 1: EVQLVESGGGLAQPGGSLRLSCAASGFSISDYEIHWVRQVPGKGLEWVSGIGSAGNTYYPGAVKGRFTISRENAKNSLYLQVNSLTVGDTAVYYCARVWSPLYYFGLDVWGQGTTVTVSSASTKGPSVFPLAPCSRSTSESTAALGCLVKDYFPEPVTVSWNSGALTSGVHTFPAVLQSSGLYSLSSVVTVPSSSLGTKTYTCNVDHKPSNTKVDKRVESKYGPPCPPCPAPEFLGGPSVFLFPPKPKDTLMISRTPEVTCVVVDVSQEDPEVQFNWYVDGVEVHNAKTKPREEQFNSTYRVVSVLTVLHQDWLNGKEYKCKVSNKGLPSSIEKTISKAKGQPREPQVYTLPPSQEEMTKNQVSLTCLVKGFYPSDIAVEWESNGQPENNYKTTPPVLDSDGSFFLYSRLTVDKSRWQEGNVFSCSVMHEALHNRFTQKSLSLSPGK
heavy 2: not shown
light: not shown
modifications: deglycosylated (PNGase F); Q295 carries azido-PEG3-amine clicked to Tubulysin 1A-LP
notes: Site-specific antibody-drug conjugate of BsAb1; also called HER2xHER2-M830
Usually Kd stands for the free concentration of one partner at which half of the binding sites on the other are occupied at equilibrium, for simple one-to-one binding. Higher therefore signals lower affinity. B1 yielded a Kd of 0.626 nM.

Values taken from patent US20240254255A1 (Regeneron, published 2024).
